Source: BindingDB's records for 28126287 (University of Sargodha, 2017)

Target: Acetylcholinesterase (Electrophorus electricus, UniProt O42275)
Conditions: pH 8

CC1(c2cccc([N+](=O)[O-])c2)NC(=O)c2cc([N+](=O)[O-])cc([N+](=O)[O-])c2N1 (stereo unspecified)
IC50: 6.2 µM
